{
  "sequences": {"note": "Protein sequences, listed by entry. Tags and fused reporters are not part of them. Residues count along the entry.", "UniProt Q27987, 22-763": "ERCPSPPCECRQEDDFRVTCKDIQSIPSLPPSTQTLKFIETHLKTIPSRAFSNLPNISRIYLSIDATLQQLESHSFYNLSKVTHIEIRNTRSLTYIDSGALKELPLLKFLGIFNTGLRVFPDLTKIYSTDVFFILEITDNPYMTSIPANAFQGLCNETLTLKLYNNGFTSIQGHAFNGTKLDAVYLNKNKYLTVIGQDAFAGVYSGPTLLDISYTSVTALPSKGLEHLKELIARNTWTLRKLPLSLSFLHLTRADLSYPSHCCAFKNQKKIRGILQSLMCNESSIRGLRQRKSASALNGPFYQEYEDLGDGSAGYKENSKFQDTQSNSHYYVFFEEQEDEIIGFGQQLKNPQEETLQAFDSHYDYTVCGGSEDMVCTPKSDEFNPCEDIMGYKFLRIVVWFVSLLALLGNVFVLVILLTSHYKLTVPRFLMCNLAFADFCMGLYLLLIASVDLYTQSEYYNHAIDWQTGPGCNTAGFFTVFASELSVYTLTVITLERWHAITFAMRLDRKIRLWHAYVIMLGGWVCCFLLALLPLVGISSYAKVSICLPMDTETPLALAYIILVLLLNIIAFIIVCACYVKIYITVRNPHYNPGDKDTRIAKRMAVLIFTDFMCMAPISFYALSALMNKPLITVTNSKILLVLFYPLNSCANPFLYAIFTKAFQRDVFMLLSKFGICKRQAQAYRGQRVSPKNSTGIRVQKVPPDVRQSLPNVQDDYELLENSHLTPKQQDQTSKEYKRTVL"},
  "source": "paper PMC5718165",
  "origin": "cited, not measured here",
  "target": "TSHR (Bos taurus) (UniProt Q27987)",
  "note": "pKd: −log10 of the molar value.",
  "data": [
    {"substance": "TSH (from UniProt P01217)", "values": [
      {"measurement": "pKd", "result": 7.30}
    ]}
  ]
}
